Values quoted from earlier work as cited in patent publication US20200316097A1, “STORAGE-STABLE READY-TO-USE INJECTABLE FORMULATIONS OF FOSAPREPITANT DIMEGLUMINE” (published 2020).

1-deoxy-1-(methylamino)-D-glucitol[3-[[(2R,3S)-2-[(1R)-1-[3,5bis(trifluoromethyl)phenyl]ethoxy]-3-(4-fluorophenyl)-4-morpholinyl]methyl]-2,5-dihydro-5-oxo-1H-1,2,4triazol-1-yl]phosphonate (2:1) (salt)
solubility in water: freely soluble
